Experimental data reported in patent publication US4008233A (priority 1972, dated 1977).

Assays:
[1] = Phenyl-p-quinone writhing test (analgesia); format: in vivo, male mice; conditions: mouse, hydrochloride
[2] = Temperature-reducing effect (decrease in body temperature); format: in vivo, male rats (SIV; printed "rate"); conditions: rat, dose not given, 2 hours
[3] = Aggressive mouse test; format: in vivo, male mice (NMRI); conditions: 30 minutes after administration
[4] = tested on: mouse; experiment: Acute toxicity; conditions: hydrochloride, observation 48 hours

CCOC(=O)[C@@]1(c2ccccc2)CCC=C[C@@H]1N(C)C (relative stereo)
Analgesia ED 50 Phenyl-p-Quinone Writhing Test ([1]; i.g.): 14.0 mg/kg
Analgesia ED 50 Phenyl-p-Quinone Writhing Test ([1]; s.c.): 15.9 mg/kg
Decrease in Body Temperature in ° C ([2]; i.g.): no effect
Decrease in Body Temperature in ° C ([2]; s.c.): no effect
Aggressive Mouse ED 50 ([3]; i.g.): no effect
Aggressive Mouse ED 50 ([3]; s.c.): no effect
Acute Toxicity LD 50 ([4]; i.g.): 437 mg/kg
Acute Toxicity LD 50 ([4]; s.c.): 490 mg/kg
